Experimental findings from US4762846A (priority 1986, dated 1988) are described below.

Amino acid sequences for entries named in this document (tags omitted).
UniProt P33535, whole entry, looked up: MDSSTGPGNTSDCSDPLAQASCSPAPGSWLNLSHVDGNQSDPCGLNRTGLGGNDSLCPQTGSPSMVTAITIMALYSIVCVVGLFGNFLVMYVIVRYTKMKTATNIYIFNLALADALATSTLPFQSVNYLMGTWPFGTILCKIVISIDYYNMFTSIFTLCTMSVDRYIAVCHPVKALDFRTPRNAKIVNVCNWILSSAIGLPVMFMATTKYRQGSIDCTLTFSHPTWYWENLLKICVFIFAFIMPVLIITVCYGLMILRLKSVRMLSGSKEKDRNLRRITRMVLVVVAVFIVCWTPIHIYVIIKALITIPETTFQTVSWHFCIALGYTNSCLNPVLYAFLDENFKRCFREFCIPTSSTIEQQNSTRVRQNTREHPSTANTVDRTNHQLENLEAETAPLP

One data set deals with muscarinic receptors. Briefly: [3H]QNB displacement and irreversible loss of binding. The conditions noted are these: 0.5 nM [3H]QNB. Also noted: species or system rat.
For another data set, the target named is opioid receptors (Rattus norvegicus, UniProt P33535). Put plainly: [3H]Dihydromorphine displacement and irreversible loss of binding.
Data set [1] is described as follows: Behavioral effects of Metaphit alone.
Data set [2] relates to benzodiazepine receptors ([3H]diazepam site). Put plainly: [3H]Diazepam displacement and irreversible loss of binding. Also noted: species or system rat. The conditions noted are these: 5 nM [3H]Diazepam.

Usually IC50 stands for the midpoint of a concentration-inhibition curve. Consider `S=C=Nc1cccc(C2(N3CCCCC3)CCCCC2)c1`, for which the half-inhibitory concentration (IC50) was 19 µM with muscarinic receptors, 11 µM on opioid receptors (1 nM [3H]Dihydromorphine) and greater than 1000 µM in data set [2]. In addition, the “inhibition of [3H]dihydromorphine binding” value on opioid receptors is reported as “competitively inhibited”. Moreover, at opioid receptors, the “irreversible blockade of opioid receptors” value is “no irreversible blockade of opioid receptors could be observed”. The “Maximum % Alkylation by 10 uM Metaphit” value on opioid receptors ([3H]Dihydromorphine, 10 uM) was 0%. Also, the results for the behavioral effects result in data set [1] (Metaphit 1 μmol/rat i.c.v.) and in data set [1] (Metaphit 2-8 μmol/rat i.c.v.) were “did not produce any significant behavioral effects” and “what appeared to be a calming effect”, respectively.
